The target of the assay is T1, Solute carrier family 15 member 2 (Homo sapiens, UniProt Q16348).
T1 sequence (Q16348 whole entry): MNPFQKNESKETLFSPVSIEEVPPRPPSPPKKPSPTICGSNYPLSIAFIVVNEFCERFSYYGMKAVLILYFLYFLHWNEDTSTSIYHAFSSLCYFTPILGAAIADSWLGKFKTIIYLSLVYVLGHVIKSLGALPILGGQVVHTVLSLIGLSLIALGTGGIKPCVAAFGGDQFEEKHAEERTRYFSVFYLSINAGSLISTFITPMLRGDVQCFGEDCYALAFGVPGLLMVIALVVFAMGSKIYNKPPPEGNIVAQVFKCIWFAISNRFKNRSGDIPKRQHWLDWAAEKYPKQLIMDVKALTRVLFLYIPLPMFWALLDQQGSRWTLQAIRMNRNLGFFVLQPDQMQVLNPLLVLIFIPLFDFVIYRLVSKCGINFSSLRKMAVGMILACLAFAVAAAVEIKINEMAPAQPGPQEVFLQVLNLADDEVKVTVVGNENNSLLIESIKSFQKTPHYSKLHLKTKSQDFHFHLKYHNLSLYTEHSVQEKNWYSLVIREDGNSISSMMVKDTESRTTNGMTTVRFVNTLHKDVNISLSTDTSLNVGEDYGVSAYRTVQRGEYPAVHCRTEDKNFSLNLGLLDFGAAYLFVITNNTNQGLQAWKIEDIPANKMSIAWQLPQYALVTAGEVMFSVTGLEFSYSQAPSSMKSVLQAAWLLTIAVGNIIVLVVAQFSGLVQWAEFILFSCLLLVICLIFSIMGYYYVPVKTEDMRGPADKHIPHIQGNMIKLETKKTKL
Put plainly: Binding affinity to human PepT2 in SKTP cells. The format is ADME, cell-based.

A word on the Ki: it is a dissociation constant, usually derived from enzyme kinetics or from competition with a known ligand.

The compound `CC(C)[C@H](N)C(=O)N1CCC[C@H]1C(=O)N1CCC[C@H]1C(=O)O` came in with a Ki of 23 µM.

Values taken from ChEMBL document CHEMBL1811879, “Fragmental modeling of hPepT2 and analysis of its binding features by docking studies and pharmacophore mapping” (Bioorg Med Chem, 2011).
